Among the data in patent US8772343B2, “Chemical compounds” (Pfizer Limited, priority 2010, dated 2014) are IC50 values, retold here.

Chains of the proteins cited; added tags and fusions are not shown.
UniProt Q15858, whole entry: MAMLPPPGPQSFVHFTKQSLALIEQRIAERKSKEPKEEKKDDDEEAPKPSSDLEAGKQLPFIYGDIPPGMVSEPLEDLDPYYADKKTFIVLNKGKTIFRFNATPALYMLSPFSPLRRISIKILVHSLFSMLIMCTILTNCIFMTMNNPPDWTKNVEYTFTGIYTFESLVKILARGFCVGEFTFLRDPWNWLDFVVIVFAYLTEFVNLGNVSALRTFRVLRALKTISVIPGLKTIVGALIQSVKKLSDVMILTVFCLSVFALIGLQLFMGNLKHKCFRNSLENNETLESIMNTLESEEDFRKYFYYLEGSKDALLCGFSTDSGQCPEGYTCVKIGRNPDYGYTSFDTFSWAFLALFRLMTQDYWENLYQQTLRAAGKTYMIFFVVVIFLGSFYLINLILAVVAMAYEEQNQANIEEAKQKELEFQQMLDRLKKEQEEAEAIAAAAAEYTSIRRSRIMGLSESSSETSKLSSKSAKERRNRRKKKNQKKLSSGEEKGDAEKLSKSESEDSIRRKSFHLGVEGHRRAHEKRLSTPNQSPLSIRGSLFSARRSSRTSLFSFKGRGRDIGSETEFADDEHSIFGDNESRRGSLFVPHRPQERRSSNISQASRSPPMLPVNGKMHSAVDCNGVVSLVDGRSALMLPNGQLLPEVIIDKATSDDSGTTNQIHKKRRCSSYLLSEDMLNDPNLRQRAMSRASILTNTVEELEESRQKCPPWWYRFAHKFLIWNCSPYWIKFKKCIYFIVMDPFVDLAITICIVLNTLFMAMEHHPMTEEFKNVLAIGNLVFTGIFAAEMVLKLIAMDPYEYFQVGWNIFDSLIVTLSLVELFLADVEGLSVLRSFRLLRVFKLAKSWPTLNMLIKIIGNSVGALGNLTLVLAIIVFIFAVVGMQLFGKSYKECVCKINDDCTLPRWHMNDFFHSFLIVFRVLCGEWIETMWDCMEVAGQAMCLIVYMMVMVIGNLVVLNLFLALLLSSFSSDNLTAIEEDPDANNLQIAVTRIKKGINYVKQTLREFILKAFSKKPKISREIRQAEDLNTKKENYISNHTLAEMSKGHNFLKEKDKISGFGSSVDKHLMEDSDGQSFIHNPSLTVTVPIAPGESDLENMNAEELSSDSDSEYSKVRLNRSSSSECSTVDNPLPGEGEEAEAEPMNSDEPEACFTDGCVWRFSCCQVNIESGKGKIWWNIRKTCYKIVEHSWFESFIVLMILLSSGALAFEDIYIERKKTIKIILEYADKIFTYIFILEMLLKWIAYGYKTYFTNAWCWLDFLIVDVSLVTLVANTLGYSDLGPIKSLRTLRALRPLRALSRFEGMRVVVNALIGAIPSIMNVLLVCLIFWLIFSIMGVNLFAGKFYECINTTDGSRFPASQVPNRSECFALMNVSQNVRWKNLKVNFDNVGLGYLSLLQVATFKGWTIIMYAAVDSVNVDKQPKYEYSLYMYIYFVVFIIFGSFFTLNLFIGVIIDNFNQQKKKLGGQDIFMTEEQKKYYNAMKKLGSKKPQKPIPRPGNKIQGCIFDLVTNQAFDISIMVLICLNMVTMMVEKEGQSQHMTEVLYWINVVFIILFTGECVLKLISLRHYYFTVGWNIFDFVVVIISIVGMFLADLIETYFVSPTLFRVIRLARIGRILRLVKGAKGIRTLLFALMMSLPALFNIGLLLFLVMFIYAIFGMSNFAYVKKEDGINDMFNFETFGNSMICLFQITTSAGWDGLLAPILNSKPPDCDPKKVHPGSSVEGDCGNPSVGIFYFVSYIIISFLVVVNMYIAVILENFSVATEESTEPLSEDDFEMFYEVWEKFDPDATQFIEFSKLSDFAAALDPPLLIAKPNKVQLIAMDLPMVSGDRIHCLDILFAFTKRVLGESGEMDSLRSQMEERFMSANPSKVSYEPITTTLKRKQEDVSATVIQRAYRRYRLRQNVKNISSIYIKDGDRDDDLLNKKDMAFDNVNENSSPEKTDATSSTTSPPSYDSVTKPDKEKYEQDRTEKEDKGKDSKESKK

Molecules are shown by their SMILES.

The target of this experiment is Nav1.7 (or SCN9A) channel (Homo sapiens, UniProt Q15858). Description: Nav1.7 PatchXpress automated whole-cell electrophysiology in HEK cells expressing hSCN9A. Conditions: read-out: Nav1.7 EIC50, estimated IC50 from single point data, PatchXpress assay, held at V1/2 of inactivation. The procedure: The ability of the compounds of formula (I) to block the Nav1.7 (or SCN9A) channel were measured using the assay described below.
Human Embryonic Kidney (HEK) cells were transfected with an hSCN9A construct using lipofectamine reagent (Invitrogen), using standard techniques. Cells stably expressing the hSCN9A constructs were identified by their resistance to G-418 (400 μg/ml). Clones were screened for expression using the whole-cell voltage-clamp technique.
HEK cells stably transfected with hSCN9A were maintained in DMEM medium supplemented with 10% heat-inactivated fetal bovine serum and 400 μg/ml G-418 in an incubator at 37° C. with a humidified atmosphere of 10% CO2. […]
hSCN9A currents in HEK cells were measured using the whole-cell configuration of the patch-clamp technique (Hamill et al., 1981). […]
HEK cells stably transfected with hSCN9A were viewed under Hoffman contrast optics and placed in front of an array of flow pipes emitting either control or compound-containing extracellular solutions. […] The voltage-dependence of inactivation was determined by applying a series of depolarizing prepulses (8 sec long in 10 mV increments) from a negative holding potential. […] Compounds were tested for their ability to inhibit hSCN9A sodium channels by activating the channel with a 20 msec voltage step to 0 mV following an 8 second conditioning prepulse to the empirically determined V1/2. […]

For the compound `COc1ncccc1-c1cc(C(=O)NS(C)(=O)=O)c(F)cc1Oc1ccc(Cl)cc1`, the IC50 was 100 nM.
